Biological target: recombinant D. alaskensis Cut C/D lysate (Oleidesulfovibrio alaskensis, UniProt Q30W70)
Conditions: read-out: IC50 (mol/L) recombinant D. alaskensis Cut C/D lysate

By UniProt entry, the sequences of proteins in these tests, tags left out. Where a name states a change or a piece, a line headed by the entry shows the natural chain unless it says otherwise.
UniProt Q30W70: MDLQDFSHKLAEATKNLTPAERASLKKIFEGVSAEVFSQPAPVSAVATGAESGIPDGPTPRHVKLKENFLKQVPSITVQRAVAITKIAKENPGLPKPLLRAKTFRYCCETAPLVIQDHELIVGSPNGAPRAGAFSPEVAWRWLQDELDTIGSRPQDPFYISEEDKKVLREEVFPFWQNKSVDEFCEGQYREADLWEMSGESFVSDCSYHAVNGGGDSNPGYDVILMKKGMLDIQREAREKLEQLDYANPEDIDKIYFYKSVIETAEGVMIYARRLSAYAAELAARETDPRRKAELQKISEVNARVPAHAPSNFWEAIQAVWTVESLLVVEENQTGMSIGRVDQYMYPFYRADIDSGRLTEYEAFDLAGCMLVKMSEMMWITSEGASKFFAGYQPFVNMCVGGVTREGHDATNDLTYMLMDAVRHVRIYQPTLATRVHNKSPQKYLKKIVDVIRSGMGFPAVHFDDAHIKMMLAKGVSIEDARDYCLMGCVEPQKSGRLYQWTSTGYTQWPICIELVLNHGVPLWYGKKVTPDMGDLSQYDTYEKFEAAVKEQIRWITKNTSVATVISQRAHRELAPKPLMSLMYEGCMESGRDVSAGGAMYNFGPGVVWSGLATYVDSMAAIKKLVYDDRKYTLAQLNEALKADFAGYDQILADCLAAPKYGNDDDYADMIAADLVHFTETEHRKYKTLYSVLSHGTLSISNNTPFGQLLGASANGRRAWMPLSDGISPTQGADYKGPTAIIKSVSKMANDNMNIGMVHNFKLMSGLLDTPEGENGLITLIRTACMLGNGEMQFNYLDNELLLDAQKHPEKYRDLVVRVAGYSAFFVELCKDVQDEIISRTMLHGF

Compound: C[S+](CCO)CCCCl (stereo not shown)
- IC50: 6.7 µM

Reference: patent publication US10751301B2, “Methods for inhibiting conversion of choline to trimethylamine (TMA)” (The Procter & Gamble Company, priority 2017, dated 2020)
